Source: patent publication US6965013B2, “Intermedin and its uses” (The Board of Trustees of the Leland Stanford Junior …, priority 2002, dated 2005)

The chains behind the UniProt entries cited, without tags or fusion partners. Residues count along the entry.
UniProt Q63118, 24-464: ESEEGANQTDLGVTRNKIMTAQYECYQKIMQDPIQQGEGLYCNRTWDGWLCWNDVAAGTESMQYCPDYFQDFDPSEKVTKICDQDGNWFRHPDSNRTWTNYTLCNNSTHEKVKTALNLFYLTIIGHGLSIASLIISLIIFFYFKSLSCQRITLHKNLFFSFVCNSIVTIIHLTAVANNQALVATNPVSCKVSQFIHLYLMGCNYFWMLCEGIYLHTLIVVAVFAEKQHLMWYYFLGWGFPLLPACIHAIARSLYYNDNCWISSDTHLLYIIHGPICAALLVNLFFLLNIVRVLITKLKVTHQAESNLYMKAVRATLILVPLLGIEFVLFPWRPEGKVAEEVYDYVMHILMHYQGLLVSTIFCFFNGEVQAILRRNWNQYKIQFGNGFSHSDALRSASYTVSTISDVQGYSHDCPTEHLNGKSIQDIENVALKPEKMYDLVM
UniProt Q9JJ74, 27-148 partner: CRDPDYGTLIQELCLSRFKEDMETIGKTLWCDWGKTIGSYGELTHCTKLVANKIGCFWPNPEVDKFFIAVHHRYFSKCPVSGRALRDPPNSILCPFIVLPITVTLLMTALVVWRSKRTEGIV

Molecular target: T1, L6 skeletal myoblast cells expressing endogenous CRLR (CGRP receptor) (Rattus norvegicus, UniProt Q63118+Q9JJ74)
T1 construct: expressing endogenous CRLR; host or cells: L6 rat skeletal myoblast cells
Experiment: Stimulation of cAMP production in L6 cells
Format: cell-based
Settings: cotreatment with intermedin, IMD17-47 at 1 μM, FIGS. 2C, 2D
Protocol: Stimulation of cAMP production in SK-N-MC and L6 cells by intermedin and related peptides. Human neuroblastoma SK-N-MC and rat L6 skeletal myoblast cells expressing endogenous CRLR were obtained from American Type Culture Collection. To estimate adenylyl cyclase activation, SK-N-MC and L6 cells (2×10^5 viable cells/well) were plated in 24-well culture dishes in DMEM/F12 medium one day before treatment. Following 2 h incubation in serum-free DMEM/F12 medium, cells were treated with testing reagents for 30 min in medium containing 0.1% BSA and 2.5 mM 3-isobutyl-1-methylxanthine (IBMX, Sigma-Aldrich Corp.) to prevent hydrolysis of cAMP by phosphodiesterases. Following treatment, cells were lysed and cAMP content determined by a specific radioimmunoassay.

## CGRP8-37: N-terminally truncated CGRP, a CGRP receptor antagonist [reference compound]
  blockage of the stimulatory effect of intermedin on cAMP production: suppressed
